# Apparent affinities of Ab-14 variants for a coronavirus HR2 peptide

From the AlphaSeq antibody data of Li et al. 2023 (doi:10.1038/s41467-023-39022-2), copy in the FLAb collection.

All variants were tested on one target, the spike HR2 peptide PDVDLGDISGINAS (SARS-CoV-2).

Parent: Ab-14, a human scFv built as VH, a 15-residue (Gly4Ser)3 linker, VL. Only the CDRs of the light chain vary.
VH: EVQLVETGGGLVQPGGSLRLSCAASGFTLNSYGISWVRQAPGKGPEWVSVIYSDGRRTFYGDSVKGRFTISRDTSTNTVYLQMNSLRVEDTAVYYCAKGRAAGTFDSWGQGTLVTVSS
VL: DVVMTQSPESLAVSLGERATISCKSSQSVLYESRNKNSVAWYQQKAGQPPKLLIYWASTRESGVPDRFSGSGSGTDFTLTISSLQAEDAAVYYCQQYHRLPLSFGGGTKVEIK

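Phage display of a naive human antibody library on the peptide gave the parent. Designed CDR sequences, proposed from the first random library and measured here. Their group label is 14L_Ctrl (Ctrl: baseline library sampled from a position-specific scoring matrix, with some repeated check sequences). The assay is AlphaSeq: two haploid yeast populations carry antibody and antigen on their surface. Binding brings cells together so that they mate, and sequencing counts the barcode pairs among the diploids. A regression on co-assayed BCL2-family reference pairs converts the normalised counts of each replicate to an apparent Kd. Each pool was mated in six replicate cultures.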

Variants are written as CDR1, CDR2 and CDR3 of the light chain (limits as in the source). Parent: KSSQSVLYESRNKNSVA, WASTRES, QQYHRLPLS.
Scale: log10 of Kd in nM, estimated from mating counts; low values are strong binders.
Replicates are averaged; those with no signal do not enter the mean.
A pair that was not seen in that replicate is written "nd"; this usually means weak binding, but a binder can also be missed.
A sequence measured in both rounds can read differently, since the two assays cover different ranges.
In the paper, a design with two or fewer of six values counts as a poor binder.
Three control strains display no target. For all light chain designs, 4% of the pairings with them gave a signal, with a median of 2.64 and one signal in twenty below 1.59, so weak values seen in few replicates may be background. The control count says in how many pairings with the empty strains this scFv gave a signal, with their mean in brackets.

| CDR-L1 | CDR-L2 | CDR-L3 | replicates, log10 nM | mean log10 Kd (nM) | control signals |
|---|---|---|---|---|---|
| KSSQSVLYESRNFNSVA | DASLRES | QQVHRLPLS | nd / nd / nd / nd / nd / nd | nd | 0/18 |
| KSSQSVLTESRNLNSVA | WASTQES | QQYHRLPLS | nd / nd / 1.35 / nd / nd / 2.95 | 2.15 | 0/18 |
| KSSHSVVYSSDNKNSVA | NASTRES | QFYHILGLY | nd / nd / nd / nd / 3.32 / nd | 3.32 | 0/18 |
| KSSSSVLYESMNKNSVA | SASTRES | QQYHRLPLS | 0.33 / 0.53 / 0.22 / 0.16 / 0.28 / 0.47 | 0.33 | 1/18 (2.81) |
| KCQQSVLYEHRNSNSVA | WASTRES | QPYHRLPLS | nd / nd / nd / nd / nd / nd | nd | 0/18 |
| KTSQSVLYESRNKNSVA | SASTRES | QQYHRLPLS | 1.37 / 0.33 / 0.43 / 0.57 / 0.55 / 0.82 | 0.68 | 0/18 |
| KSSQSVLYESMNKNSVA | WASTREA | QQYHRLPLS | 1.01 / 1.31 / 1.39 / 1.71 / 0.62 / 1.23 | 1.21 | 0/18 |
| KSSQSVLYESRNHNSVA | QASTRSS | QQYHRLPLS | 0.49 / 0.56 / 0.77 / 1.35 / 0.78 / 1.43 | 0.90 | 0/18 |
| KSSQSWWPESRNKNSVA | WGSTRES | QQYHRLPLS | 1.04 / 0.81 / 0.68 / 0.52 / 0.61 / 0.80 | 0.74 | 1/18 (3.08) |
| KSSQSVLYEDRNKNSVA | SASTRIS | QQYHGLPLS | 1.18 / 1.21 / 1.36 / 1.25 / 1.36 / 1.42 | 1.30 | 1/18 (3.50) |
| KSSQSVLYESRNKNSVA | WASTREH | QQYHRLSLS | nd / nd / nd / nd / nd / nd | nd | 0/18 |
| KSSLSVMYESRDKNSVA | NATTRES | QQYHRLPLS | 0.45 / 0.30 / 0.30 / 0.15 / 0.30 / 0.44 | 0.32 | 2/18 (2.79) |
| KCSQYVDRESRNKNSVA | WASTREV | QQYHRLPLS | 1.30 / 1.33 / 0.75 / 1.34 / 1.61 / 1.49 | 1.30 | 0/18 |
| KTSQSDLYESRNKNSVA | WASTRES | QQYHELPLS | 1.27 / 1.11 / 1.00 / 1.80 / 2.02 / nd | 1.44 | 0/18 |
| KSSQPVLYESRNKHSVA | WASTRES | QQYHRLPLS | nd / nd / nd / nd / nd / nd | nd | 0/18 |
| KSSQSVLMECRNKNSVA | WASTRES | QQYHRLPLS | nd / nd / 2.59 / 2.90 / 3.38 / nd | 2.96 | 1/18 (2.27) |
| KWSQSVLYESRNKNSVA | WASTLES | QQYHRLPLS | nd / nd / nd / nd / nd / nd | nd | 1/18 (1.31) |
| KSSQEVLYESRNKNSVA | KASTRES | QQYHRLPLS | 2.30 / 0.83 / 0.88 / 0.83 / 0.70 / 0.84 | 1.06 | 0/18 |
| KLSQSVLYEDRNKNSVA | QASTRCS | QQYHRLPLN | 0.08 / -0.13 / -0.37 / -0.21 / -0.15 / -0.26 | -0.17 | 0/18 |
| KSSKSVLYESRNKNSVA | EASTRES | QQYHRLPLS | 0.52 / 0.44 / 0.41 / 0.28 / 0.39 / 0.51 | 0.42 | 3/18 (3.59) |
| QSSQSVLYESRNKNSVA | EASTRES | QQYHRLPLS | 0.45 / 0.99 / 1.02 / 0.53 / 0.71 / 1.17 | 0.81 | 1/18 (1.82) |
| KSSQSLLYESRNKNSVA | WASTREV | QQYHRLPLS | 1.38 / nd / 1.38 / 2.41 / 1.48 / 0.97 | 1.52 | 0/18 |
| GSSQSVLYESRNSNSVA | WATTRLS | QQYHRLPLS | nd / nd / nd / nd / nd / nd | nd | 0/18 |
| KSSQSVLYESRNKNSVA | WASTRES | QQYDRLPLS | 3.26 / 2.91 / 2.60 / 1.92 / 2.45 / nd | 2.63 | 0/18 |
| KSSQSVLQESRNQNSVA | DADTRES | QQYHRLPLS | 0.27 / 0.34 / 0.47 / 0.27 / 0.19 / 0.45 | 0.33 | 1/18 (2.13) |
| KSSQSVLHESRNDNSVA | WASTREP | QQYCRLPLS | 2.25 / 1.87 / nd / 1.05 / nd / nd | 1.73 | 0/18 |
| KSSGSVYYQSRNKNSVA | RAKTRES | QQYHRLPLS | nd / nd / nd / nd / nd / nd | nd | 0/18 |
| KDSQSDLYESRNKNSVA | WASTRES | QQYHHLPLS | 2.52 / 0.63 / 2.96 / 2.06 / 2.95 / 2.73 | 2.31 | 1/18 (2.91) |
| KSSQSVLYYSLNKNAVA | HASTRES | QQYHRLPYS | nd / 2.09 / nd / nd / nd / nd | 2.09 | 0/18 |
| KISQSVLYESRNKNSLA | WASTRES | QQYHRLPLS | 1.17 / 1.43 / 0.96 / 1.13 / 1.33 / 0.85 | 1.14 | 0/18 |
| KSSQSMLYESRNKNSVA | DASTRES | QQYHRLPLS | 0.18 / 0.00 / 0.05 / -0.27 / -0.19 / 0.08 | -0.03 | 0/18 |
| KLSQSVLIESRNKNSVA | WASTRES | QQYHRLPLS | 0.38 / 0.36 / 0.68 / 0.86 / 0.54 / 0.90 | 0.62 | 1/18 (2.29) |
| KSSQSVLYESRNKNSVA | WASTREL | QQYHHLPLS | 1.47 / 2.36 / 1.90 / 1.34 / 1.53 / 1.76 | 1.73 | 1/18 (1.96) |
| KSSQSVLFESRDKNSVA | WASTRES | QQYHRLPLS | 1.56 / 1.31 / 1.90 / 0.99 / 1.24 / 1.81 | 1.47 | 0/18 |
| HSSQSVLYESRNKNSVA | GASTRES | QQYHRLPLS | 0.49 / 0.48 / 0.26 / 0.19 / 0.52 / 0.35 | 0.38 | 2/18 (3.61) |
| KSSQSVLYESRFKNSVA | WGSTRES | QQYHRLPLS | 2.37 / 2.02 / 3.27 / 2.03 / 2.02 / 2.40 | 2.35 | 2/18 (3.11) |
| RSSQSTLYESRNENSVA | WASTRES | QQYHRLPLS | nd / nd / nd / nd / nd / nd | nd | 0/18 |
| KSSQSVLMASRNNNSVA | WASTRES | QQYHRLPLS | 1.74 / 1.63 / 1.75 / 1.98 / 2.68 / 2.30 | 2.01 | 0/18 |
| KSSHSKLYESRNKNSVA | WASTRES | QQYHRLPLS | nd / nd / nd / 3.19 / nd / nd | 3.19 | 0/18 |
| KSSQSVEAESRFKNSVA | WASTRES | QQYHRNPLS | nd / nd / nd / nd / nd / nd | nd | 0/18 |
| KSSQHVLYESRNDNSVA | WASTREP | QQYHRLPLS | nd / nd / 2.56 / 3.88 / 2.04 / 2.45 | 2.73 | 1/18 (2.32) |
| KSSQPVLYESRNKNSVA | WASTRES | QQYHQLPLS | nd / nd / 1.68 / 2.01 / nd / nd | 1.84 | 0/18 |
| KSQQSVLYESRNKNAVA | NASTRES | QQYHRLPLS | 2.49 / 2.00 / 2.29 / 3.42 / 3.50 / 2.84 | 2.76 | 0/18 |